Test results published in PubChem BioAssay AID504765 (Sanford-Burnham Center for Chemical Genomics, 2011).

Target: glucose-6-phosphate dehydrogenase-6-phosphogluconolactonase (Plasmodium falciparum 3D7)
Assay: concentration-dependent PfGluPho enzyme inhibition – biochemical, fluorescence intensity, dose response (AID 504765)
Conditions: Recombinant PfG6PD enzyme, fluorescence intensity (NADPH)

Structure (SMILES): CNc1nc(-c2ccccc2)[n+](-c2ccc(C)cc2)s1
- IC50: 3.36 µM
